Tested on: Nc1ncnc2c1ncn2[C@@H]1O[C@H](COP(=O)(O)OP(=O)(O)OP(=O)(O)O)[C@@H](O)[C@H]1O
Assay: purified protein
Settings: pH 7.5; 30.0 °C

(Mycolicibacterium vanbaalenii PYR-1)
Km: 2600 ± 500 µM

— article PMC4306142, “Structure of mycobacterial maltokinase, the missing link in the essential GlgE-pathway” (Scientific Reports, 2015)
